{"source": "patent US9233949B2", "about": "“Treatment for oxidative stress and/or hypertension” (Georgetown University, priority 2009, dated 2016)", "target": "T1, AT1 receptor (AT1-R) (Homo sapiens, UniProt P30556)", "T1 construct": "Frozen human KAN-TS cells were thawed, diluted with assay buffer, homogenized; host or cells: human KAN-TS cells", "assay": "Angiotensin II, Type 1 receptor radioligand binding displacement", "details": "10^−9 M drug concentration, n=2 (FIG. 3A)", "experimental": "Angiotensin II, Type 1 Assay.\nFrozen human KAN-TS cells were thawed, diluted with assay buffer, homogenized, and stored on ice until addition to assay tubes. Angiotensin II, Type I (Human) assay was performed using a norvacreen method (CAT #: AT1-100 (Lot #: 75)). A Kd: [^125I]-Tyr4, Ile8-Angiotensin II=0.2 nM with a Bmax (Receptor density): 0.11 μmol/mg protein at an AT1 protein concentration of 8 mg/vial was used as a control. Briefly, the membranes were suspended in 50 mM TRIS-HCl containing 10% glycerol, 100 mM NaCl, 1 mM MgCl2, 0.1% BSA, 0.1 mM and bacitracin (pH 7.2 at 25° C.) in a vial of 1.5 mL. The assay incubation was 180 minutes at 25° C. Filters: GF/B filters were used pre-soaked in 0.1% PEI and a wash buffer (wash 5 times with 1 mL per tube) of 50 mM NaCl.", "data": [{"smiles": "CCCc1nc2c(C)cc(-c3nc4ccccc4n3C)cc2n1Cc1ccc(-c2ccccc2C(=O)OC2CC(C)(C)N([O])C(C)(C)C2)cc1", "note": "[YK]", "values": [{"measurement": "AT1-R displacement activity (radiolabeled Ang II)", "result": "retains the full AT1-R displacement activity of telmisartan"}]}]}
